Amino acid sequences for entries named in this document (tags omitted). A change or cut given only in a name is not applied to a line headed by its entry.
UniProt P41146: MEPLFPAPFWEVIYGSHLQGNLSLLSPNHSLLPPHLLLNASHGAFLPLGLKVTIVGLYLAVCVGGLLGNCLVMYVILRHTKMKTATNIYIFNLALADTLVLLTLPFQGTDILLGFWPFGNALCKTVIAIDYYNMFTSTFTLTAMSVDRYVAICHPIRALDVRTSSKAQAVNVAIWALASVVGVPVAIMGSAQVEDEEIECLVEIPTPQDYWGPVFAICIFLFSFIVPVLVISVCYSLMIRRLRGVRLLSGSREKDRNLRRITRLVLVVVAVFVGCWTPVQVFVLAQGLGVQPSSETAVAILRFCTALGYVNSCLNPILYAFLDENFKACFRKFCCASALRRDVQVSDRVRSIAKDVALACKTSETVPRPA
UniProt P35372, whole entry, looked up: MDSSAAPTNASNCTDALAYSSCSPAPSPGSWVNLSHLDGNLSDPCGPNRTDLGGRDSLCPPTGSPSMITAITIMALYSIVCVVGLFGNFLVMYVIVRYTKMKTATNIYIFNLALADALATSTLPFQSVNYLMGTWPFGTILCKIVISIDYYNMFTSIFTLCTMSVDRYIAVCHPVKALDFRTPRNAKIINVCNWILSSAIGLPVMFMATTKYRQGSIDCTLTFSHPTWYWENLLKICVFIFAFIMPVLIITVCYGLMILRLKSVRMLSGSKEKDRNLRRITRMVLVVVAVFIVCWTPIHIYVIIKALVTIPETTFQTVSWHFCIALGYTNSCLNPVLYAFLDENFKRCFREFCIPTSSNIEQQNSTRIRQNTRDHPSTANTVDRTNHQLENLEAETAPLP

In US9403767B2, “Substituted 4-aminocyclohexane derivatives” (dated 2016):

How the values were obtained:
ORL 1-receptor = ORL 1-receptor (Homo sapiens (Human), UniProt P41146); assay: ORL 1 receptor binding assay with 3H-nociceptin/orphanin FQ (membranes of recombinant CHO-ORL 1 cells); conditions: for % Inhibition (ORL1) [1 μM]: test concentration 1 μM; for Ki: read-out: Ki (ORL1) Mean
human μ-opiate receptor = human μ-opiate receptor (Homo sapiens (Human), UniProt P35372); assay: μ-opiate receptor binding assay with [3H]-naloxone (CHO-K1 membrane preparation); conditions: for % Inhibition (μ) [1 μM]: test concentration 1 μM; for Ki: read-out: Ki (μ) Mean

| Compound | % Inhibition (ORL1) [1 μM] (ORL 1-receptor) [%] | % Inhibition (μ) [1 μM] (human μ-opiate receptor) [%] | Ki (human μ-opiate receptor) [nM] | Ki (ORL 1-receptor) [nM] |
| --- | --- | --- | --- | --- |
| CN(C)C1(c2ccccc2)CCC(c2ccccc2)(N(C)Cc2cccc(F)c2)CC1 (single isomer, unassigned) | 89 | – | – | – |
| CN(C)C(=O)CN(C)C1(c2ccccc2)CCC(c2ccccc2)(N(C)C)CC1 (stereo not shown) | 70 | – | – | – |
| CN(C)C1(c2ccccc2)CCC(c2ccccc2)(N(C)C(=O)c2cccc(C(F)(F)F)c2)CC1 (stereo not shown) | 91 | 101 | – | – |
| CNC1(c2ccccc2)CCC(c2ccc(C(F)(F)F)cc2)(N(C)C)CC1 (single isomer, unassigned) | 38 | 55 | – | – |
| CNC1(c2ccccc2)CCC(c2cccs2)(N(C)C)CC1 (single isomer, unassigned) | 73 | 93 | – | – |
| CN(C)C1(c2ccccc2)CCC(C(=O)c2cc3ccccc3n2C)(N2CCCC2)CC1 (single isomer, unassigned) | 34 | 48. | – | – |
| Cc1c(C2(N3CCCCC3)CCC(c3ccccc3)(N(C)C)CC2)[nH]c2ccccc12 (stereo not shown) | 27 | – | – | – |
| COCc1c(C2(OC)CCC(c3ccccc3)(N(C)C)CC2)[nH]c2ccccc12.O=C(O)CC(O)(CC(=O)O)C(=O)O (stereo not shown) | 17 | 67 | – | – |
| CN(C)CC1(c2ccccc2)CCC(c2ccccc2)(N(C)C)CC1 (single isomer, unassigned) | 66 | – | – | – |
| 4-(acetidin-1-yl)-1-(3-fluorophenyl)-N,N-dimethyl-4-(3-methyl-1H-indol-2-yl)cyclohexanamine [95] | 32 | 49 | – | – |
| CN(C)c1nc(N(C)C)nc(N(C)C2(c3ccccc3)CCC(c3ccccc3)(N(C)C)CC2)n1 (stereo not shown) | 15 | 46 | – | – |
| 4-chloro-N-((-4-(dimethylamino)-1-methyl-4-phenylcyclohexyl)methyl)benzol sulphonamide 2-hydroxypropane-1,2,3-tricarboxylate | 95 | 100 | 1.25 | 2.7 |
| CN(C)C1(c2ccccc2)CCC(C(=O)c2cc3ccccc3n2C)(N2CCCC2)CC1 (stereo not shown) | 9 | 22 | – | – |
| COc1ccc(Oc2nc(Oc3ccc(OC)cc3)nc(N(C)C3(c4ccccc4)CCC(c4ccccc4)(N(C)C)CC3)n2)cc1 (stereo not shown) | 25 | 64 | – | – |
| Cc1c(C2(NCc3ccccc3)CCC(c3ccccc3)(N(C)C)CC2)[nH]c2ccccc12.O=C(O)CC(O)(CC(=O)O)C(=O)O (stereo not shown) | 72 | 97 | – | – |
| CNc1nc(Oc2ccc(OC)cc2)nc(N(C)C2(c3ccccc3)CCC(c3ccccc3)(N(C)C)CC2)n1 (stereo not shown) | 53 | – | – | – |
| CN(C)C1(c2ccccc2)CCC(c2ccccc2)(N(C)C(=O)c2cccc(C(F)(F)F)c2)CC1 (single isomer, unassigned) | 97.5 | 100 | – | – |
| Cc1c(C2(N(C)C)CCC(c3ccccc3)(N(C)C)CC2)[nH]c2ccc(F)cc12 (stereo not shown) | 48 | – | – | – |
| CNC(=O)CN(C)C1(c2ccccc2)CCC(c2ccccc2)(N(C)C)CC1 (stereo not shown) | 83 | – | – | – |
| N-((1-butyl-4-(dimethylamino)-4-phenylcyclohexyl)methyl)-4-chlorobenzol sulphonamide 2-hydroxypropane-1,2,3-tricarboxylate | 94 | 96 | 47.5 | 17 |

| Compound | % Inhibition (ORL1) [1 μM] (ORL 1-receptor) [%] | % Inhibition (μ) [1 μM] (human μ-opiate receptor) [%] | Ki (human μ-opiate receptor) [nM] | Ki (ORL 1-receptor) [nM] |
| --- | --- | --- | --- | --- |
| CNc1nc(NC)nc(N(C)C2(c3ccccc3)CCC(c3ccccc3)(N(C)C)CC2)n1 (single isomer, unassigned) | 44 | – | – | – |
| 2-[(4-dimethylamino-1,4-diphenyl-cyclohexyl)-methyl-amino]-N,N-dimethyl-acetamide | 65 | – | 2600 | – |
| CNC1(c2ccccc2)CCC(c2ccc(OC)cc2)(N(C)C)CC1 (stereo not shown) | 15 | 43 | – | – |
| CN(C)C1(c2ccccc2)CCC(C(=N)c2cc3ccccc3n2C)(N2CCCC2)CC1 (stereo not shown) | 51 | 83 | – | – |
| CN(C)C1(c2ccccc2)CCC(c2ccccc2)(N(C)CCO)CC1 (single isomer, unassigned) | 36 | – | – | – |
| Cc1c(C2(N3CCCC3)CCC(c3ccccc3)(N(C)C)CC2)[nH]c2ccc(F)cc12 (single isomer, unassigned) | 52 | 21 | – | – |
| CNc1nc(Oc2ccc(OC)cc2)nc(N(C)C2(c3ccccc3)CCC(c3ccccc3)(N(C)C)CC2)n1 (single isomer, unassigned) | 98 | – | – | – |
| Cc1c(C2(N(C)C)CCC(c3ccccc3)(N(C)C)CC2)[nH]c2ccccc12 (single isomer, unassigned) | 29 | – | – | – |
| CN(C)C1(c2ccccc2)CCC(c2ccccc2)(N(C)CCCCO)CC1 (stereo not shown) | 88 | 62 | – | – |
| Cc1c(C2(N(C)C)CCC(c3ccccc3)(N(C)C)CC2)[nH]c2ccccc12 (stereo not shown) | 30 | – | – | – |
| CN(C)C1(c2ccccc2)CCC(c2ccccc2)(N(C)C(=O)c2cccnc2)CC1 (stereo not shown) | 54 | – | – | – |
| CNc1nc(N2CCCCC2)nc(N(C)C2(c3ccccc3)CCC(c3ccccc3)(N(C)C)CC2)n1 (stereo not shown) | 67 | 33 | – | – |
| [4-(acetidin-1-yl)-4-(3-methyl-1H-indol-2-yl)-1-phenyl-cyclohexyl]-dimethylamine | 22 | 56 | – | – |
| Cc1c(C2(N3CCCC3)CCC(c3ccccc3)(N(C)C)CC2)[nH]c2ccccc12 (stereo not shown) | 36 | 61 | – | – |
| CC(=O)NCC1(C)CCC(c2ccccc2)(N(C)C)CC1.O=C(O)CC(O)(CC(=O)O)C(=O)O (stereo not shown) | 17 | 61 | – | – |
| CN(Cc1c[nH]c2ccccc12)CC1(C)CCC(c2ccccc2)(N(C)C)CC1 (single isomer, unassigned) | 39 | 67 | – | – |
| CNC1(c2ccccc2)CCC(c2cccs2)(N(C)C)CC1 (stereo not shown) | 35 | 29 | – | – |
| CNC1(c2ccccc2)CCC(c2ccc(OC)cc2)(N(C)C)CC1 (single isomer, unassigned) | 50 | 40 | – | – |
| CN(Cc1cn(CO)c2ccccc12)CC1(C)CCC(c2ccccc2)(N(C)C)CC1 (stereo not shown) | 91 | 99 | – | – |
| CN(C)C1(C(=N)c2cc3ccccc3n2C)CCC(c2ccccc2)(N(C)C)CC1.O=C(O)CC(O)(CC(=O)O)C(=O)O.O=C(O)CC(O)(CC(=O)O)C(=O)O (stereo not shown) | 81 | 0 | – | – |

| Compound | % Inhibition (ORL1) [1 μM] (ORL 1-receptor) [%] | % Inhibition (μ) [1 μM] (human μ-opiate receptor) [%] | Ki (human μ-opiate receptor) [nM] | Ki (ORL 1-receptor) [nM] |
| --- | --- | --- | --- | --- |
| 4-(acetidin-1-yl)-1-(3-fluorophenyl)-N,N-dimethyl-4-(3-methyl-1H-indol-2-yl)cyclohexanamine [96] | 64 | 62 | 235 | 108 |
| 2-[(4-dimethylamino-1,4-diphenyl-cyclohexyl)-methyl-amino]-N-methyl-acetamide | 23 | – | – | – |
| Cc1c(C2(N(C)C)CCC(c3ccccc3)(N(C)C)CC2)[nH]c2ccc(F)cc12 (single isomer, unassigned) | 35 | – | – | – |
| Cc1c(C2(N3CCCC3)CCC(c3ccccc3)(N(C)C)CC2)[nH]c2ccccc12.Cl.Cl (stereo not shown) | 61 | 18 | – | – |
| (4-benzyl-4-((dimethylamino)methyl)-N-methyl-1-phenylcyclohexanamine | 9 | 42 | 1110 | 3960 |
| CNc1nc(NC)nc(N(C)C2(c3ccccc3)CCC(c3ccccc3)(N(C)C)CC2)n1 (stereo not shown) | 35 | – | – | – |
| CNC1(c2ccccc2)CCC(c2ccc(C(F)(F)F)cc2)(N(C)C)CC1 (stereo not shown) | 28 | 77 | – | – |
| CN(C)C1(c2ccccc2)CCC(c2ccccc2)(N(C)CCO)CC1 (stereo not shown) | 18 | 28 | – | – |
| CN(C)C1(c2ccccc2)CCC(c2ccccc2)(N(C)Cc2cccc(F)c2)CC1 (stereo not shown) | 52 | – | – | 1.43 |
| CN(C)C1(C(=N)c2cc3ccccc3n2C)CCC(c2ccccc2)(N(C)C)CC1.O=C(O)CC(O)(CC(=O)O)C(=O)O.O=C(O)CC(O)(CC(=O)O)C(=O)O (single isomer, unassigned) | 26 | 46 | – | – |
| CN(C)C1(c2ccccc2)CCC(c2ccccc2)(N(C)C(=O)CCC(=O)O)CC1 (stereo not shown) | 37 | 22 | – | – |
| CN(Cc1c[nH]c2ccccc12)CC1(C)CCC(c2ccccc2)(N(C)C)CC1 (stereo not shown) | 96 | 95 | – | – |
| CCOC1(c2[nH]c3ccccc3c2COC)CCC(c2ccccc2)(N(C)C)CC1.O=C(O)CC(O)(CC(=O)O)C(=O)O (stereo not shown) | 18 | 65 | – | – |
| Cc1c(C2(N3CCCC3)CCC(c3ccccc3)(N(C)C)CC2)[nH]c2ccc(F)cc12 (stereo not shown) | 23 | – | – | – |
| CNC1(c2[nH]c3ccccc3c2C)CCC(c2cccc(F)c2)(N(C)C)CC1 (stereo not shown) | 38 | 78 | – | – |
| CN(C)CC1(c2ccccc2)CCC(c2ccccc2)(N(C)C)CC1 (stereo not shown) | 13 | 15 | – | – |
| CN(C)C1(c2ccccc2)CCC(c2ccccc2)(N(C)C(=O)C(c2ccccc2)c2ccccc2)CC1 (stereo not shown) | 87 | 93 | – | – |
| COCc1c(C2(OCc3ccccc3)CCC(c3ccccc3)(N(C)C)CC2)[nH]c2ccccc12 (stereo not shown) | 83 | 98 | – | – |
| Cc1c(C2(N(C)C(=O)/C=C/c3ccccc3)CCC(c3ccccc3)(N(C)C)CC2)[nH]c2ccccc12 (stereo not shown) | 82 | 91 | – | – |
